The values that follow are results of earlier work, collected in US20130289019A1, “METHODS OF TREATING BEHAVIORIAL AND/OR MENTAL DISORDERS” (AMAZING GRACE, INC., priority 2012, published 2013).

The chains behind the UniProt entries cited, without tags or fusion partners.
UniProt P08172, whole entry: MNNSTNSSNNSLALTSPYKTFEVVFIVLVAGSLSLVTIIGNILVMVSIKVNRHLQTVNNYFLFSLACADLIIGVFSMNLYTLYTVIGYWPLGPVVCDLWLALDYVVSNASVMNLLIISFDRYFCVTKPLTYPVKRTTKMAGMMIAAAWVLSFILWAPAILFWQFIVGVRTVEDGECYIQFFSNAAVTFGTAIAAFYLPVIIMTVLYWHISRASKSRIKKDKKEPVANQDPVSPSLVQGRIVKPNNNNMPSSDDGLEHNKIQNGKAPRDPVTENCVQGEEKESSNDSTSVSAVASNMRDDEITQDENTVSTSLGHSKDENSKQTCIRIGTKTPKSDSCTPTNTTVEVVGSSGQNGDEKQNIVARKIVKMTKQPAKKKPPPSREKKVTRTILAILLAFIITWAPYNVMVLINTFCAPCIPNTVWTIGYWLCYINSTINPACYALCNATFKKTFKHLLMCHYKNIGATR

This series concerns the target M2 receptors (Homo sapiens, UniProt P08172). The settings on record: Billard et al. 1995; cited from earlier work.

A word on the Ki: it is the equilibrium dissociation constant of an inhibitor or competing ligand from its target. For `CN1[C@@H]2C[C@@H](OC(=O)[C@H](CO)c3ccccc3)C[C@H]1[C@@H]1O[C@@H]12` [Scopolamine], the inhibitory constant (Ki) was 0.88 nM.
